This note sets out measurements from patent US11186582B2, “Substituted [1,2,4]triazolo[1,5-a]pyrimidin-7-yl compounds as PDE2 inhibitors” (DART NEUROSCIENCE (CAYMAN) LTD., priority 2014, dated 2021).

The chains behind the UniProt entries cited, without tags or fusion partners. Residues count along the entry.
UniProt O00408, 2-941: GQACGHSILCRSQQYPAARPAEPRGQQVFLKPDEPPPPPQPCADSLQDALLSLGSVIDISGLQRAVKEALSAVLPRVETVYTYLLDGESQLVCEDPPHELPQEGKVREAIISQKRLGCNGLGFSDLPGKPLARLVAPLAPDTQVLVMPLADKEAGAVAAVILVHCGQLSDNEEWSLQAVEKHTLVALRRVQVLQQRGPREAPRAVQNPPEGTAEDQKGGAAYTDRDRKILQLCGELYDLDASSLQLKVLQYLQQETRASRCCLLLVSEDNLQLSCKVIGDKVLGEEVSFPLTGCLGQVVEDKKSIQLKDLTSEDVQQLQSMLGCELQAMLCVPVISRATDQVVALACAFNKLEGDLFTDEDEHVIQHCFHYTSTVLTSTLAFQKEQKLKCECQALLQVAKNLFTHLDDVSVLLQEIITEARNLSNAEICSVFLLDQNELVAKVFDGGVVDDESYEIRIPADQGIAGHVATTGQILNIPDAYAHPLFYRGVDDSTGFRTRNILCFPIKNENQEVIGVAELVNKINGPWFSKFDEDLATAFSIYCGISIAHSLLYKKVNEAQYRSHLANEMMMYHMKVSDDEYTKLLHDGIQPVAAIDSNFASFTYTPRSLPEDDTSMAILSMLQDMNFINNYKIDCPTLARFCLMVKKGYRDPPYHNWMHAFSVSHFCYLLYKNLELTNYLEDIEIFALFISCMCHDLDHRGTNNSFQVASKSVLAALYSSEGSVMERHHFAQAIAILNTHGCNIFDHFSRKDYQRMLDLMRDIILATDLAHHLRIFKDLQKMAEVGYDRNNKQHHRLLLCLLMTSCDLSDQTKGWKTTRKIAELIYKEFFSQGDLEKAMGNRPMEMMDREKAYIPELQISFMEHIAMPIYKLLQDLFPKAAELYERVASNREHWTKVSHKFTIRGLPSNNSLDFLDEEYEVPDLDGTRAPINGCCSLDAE

The target in the first test is FLAG-tagged PDE2A1 (amino acids 2-941) (Homo sapiens (Human), UniProt O00408). Nature of the test: IMAP TR-FRET PDE2A phosphodiesterase enzymatic assay.
Details: not given
In general terms: TR-FRET usually uses a lanthanide donor and a delayed reading to cut background.
With `Cc1cc(C2CCCN(Cc3cccc4[nH]ccc34)C2)n2ncnc2n1` (stereo not shown) [Example 87, 4-[(3-{5-Methyl-[1,2,4]triazolo[1,5-a]pyrimidin-7-yl}piperidin-1-yl)methyl]-1H-indole], the half-inhibitory concentration (IC50) (commonly the midpoint of a concentration-inhibition curve) is > 10000 nM.

Regarding `COc1cccc(CN2CCCC(c3cc(C)nc4ncnn34)C2)c1` (stereo not shown) [Example 88, 1-[(3-Methoxyphenyl)methyl]-3-{5-methyl-[1,2,4]triazolo[1,5-a]pyrimidin-7-yl}piperidine], the IC50 was in the range of 1000 to 10000 nM.

For `Cc1cc(C2CCCN(Cc3ccccc3C)C2)n2ncnc2n1` (stereo not shown) [Example 89, 3-{5-Methyl-[1,2,4]triazolo[1,5-a]pyrimidin-7-yl}-1-[(2-methylphenyl)methyl]piperidine], the IC50 was > 10000 nM.

Turning to `Cc1cc(C2CCCN(Cc3ccc(N(C)C)cc3)C2)n2ncnc2n1` (stereo not shown) [Example 90, N,N-Dimethyl-4-[(3-{5-methyl-[1,2,4]triazolo[1,5-a]pyrimidin-7-yl}piperidin-1-yl)methyl]aniline], the IC50 was > 10000 nM.

On to `Cc1cc(C2CCCN(Cc3ccc(F)c(F)c3)C2)n2ncnc2n1` (stereo not shown) [Example 91, 1-[(3,4-Difluorophenyl)methyl]-3-{5-methyl-[1,2,4]triazolo[1,5-a]pyrimidin-7-yl}piperidine], for which the IC50 is 100 to 1000 nM.

`Cc1cc(C2CCCN(Cc3ccc(C(F)(F)F)cc3F)C2)n2ncnc2n1` (stereo not shown) [Example 92, 1-{[2-Fluoro-4-(trifluoromethyl)phenyl]methyl}-3-{5-methyl-[1,2,4]triazolo[1,5-a]pyrimidin-7-yl}piperidine] showed an IC50 of 100 to 1000 nM.

Compound `Cc1cc(C2CCCN(Cc3ccc(C)c(C)c3)C2)n2ncnc2n1` (stereo not shown) [Example 93, 1-[(3,4-Dimethylphenyl)methyl]-3-{5-methyl-[1,2,4]triazolo[1,5-a]pyrimidin-7-yl}piperidine] showed an IC50 of 100 to 1000 nM.

As to `COc1ccc(CN2CCCC(c3cc(C)nc4ncnn34)C2)cc1` (stereo not shown) [Example 94, 1-[(4-Methoxyphenyl)methyl]-3-{5-methyl-[1,2,4]triazolo[1,5-a]pyrimidin-7-yl}piperidine], the concentration for half-maximal inhibition (IC50) lay in the range of 1000 to 10000 nM.

Consider `Cc1cc(F)cc(CN2CCCC(c3cc(C)nc4ncnn34)C2)c1` (stereo not shown) [Example 95, 1-[(3-Fluoro-5-methylphenyl)methyl]-3-{5-methyl-[1,2,4]triazolo[1,5-a]pyrimidin-7-yl}piperidine], for which the IC50 was 100 to 1000 nM.

For `COc1ccc(C(C)C)cc1CN1CCCC(c2cc(C)nc3ncnn23)C1` (stereo not shown) [Example 96, 1-{[2-Methoxy-5-(propan-2-yl)phenyl]methyl}-3-{5-methyl-[1,2,4]triazolo[1,5-a]pyrimidin-7-yl}piperidine], the IC50 was > 10000 nM.

For `Cc1cc(C2CCCN(Cc3ccc4c(c3)OCO4)C2)n2ncnc2n1` (stereo not shown) [Example 97, 1-(2H-1,3-Benzodioxol-5-ylmethyl)-3-{5-methyl-[1,2,4]triazolo[1,5-a]pyrimidin-7-yl}piperidine], the IC50 was > 10000 nM.

Compound `Cc1cc(C2CCCN(Cc3ccccc3-c3ccccc3)C2)n2ncnc2n1` (stereo not shown) [Example 98, 3-{5-Methyl-[1,2,4]triazolo[1,5-a]pyrimidin-7-yl}-1-[(2-phenylphenyl)methyl]piperidine] came in with an IC50 of 1000 to 10000 nM.

As to `Cc1cc(C2CCCN(Cc3c[nH]c4ccccc34)C2)n2ncnc2n1` (stereo not shown) [Example 99, 3-[(3-{5-Methyl-[1,2,4]triazolo[1,5-a]pyrimidin-7-yl}piperidin-1-yl)methyl]-1H-indole], the IC50 was > 10000 nM.

For `Cc1cc(C2CCCN(Cc3ccc(OC(F)F)cc3)C2)n2ncnc2n1` (stereo not shown) [Example 100, 1-{[4-(Difluoromethoxy)phenyl]methyl}-3-{5-methyl-[1,2,4]triazolo[1,5-a]pyrimidin-7-yl}piperidine], the IC50 is 1000 to 10000 nM.

As for `Cc1cccc(CN2CCCC(c3cc(C)nc4ncnn34)C2)c1` (stereo not shown) [Example 101, 3-{5-Methyl-[1,2,4]triazolo[1,5-a]pyrimidin-7-yl}-1-[(3-methylphenyl)methyl]piperidine], the IC50 lay within 1000 to 10000 nM.

On to `Cc1cc(C2CCCN(Cc3ccccc3C(F)(F)F)C2)n2ncnc2n1` (stereo not shown) [Example 102, 3-{5-Methyl-[1,2,4]triazolo[1,5-a]pyrimidin-7-yl}-1-{[2-(trifluoromethyl)phenyl]methyl}piperidine], for which the IC50 lay within 1000 to 10000 nM.

As for `COc1ccc(CN2CCCC(c3cc(C)nc4ncnn34)C2)c(F)c1` (stereo not shown) [Example 103, 1-[(2-Fluoro-4-methoxyphenyl)methyl]-3-{5-methyl-[1,2,4]triazolo[1,5-a]pyrimidin-7-yl}piperidine], the IC50 fell in the range of 1000 to 10000 nM.

Take `Cc1cc(C2CCCN(Cc3cc4ccccc4o3)C2)n2ncnc2n1` (stereo not shown) [Example 104, 1-(1-Benzofuran-2-ylmethyl)-3-{5-methyl-[1,2,4]triazolo[1,5-a]pyrimidin-7-yl}piperidine]: the IC50 lay in the range of 100 to 1000 nM.

In the case of `Cc1cc(C2CCCN(Cc3cc(F)ccc3F)C2)n2ncnc2n1` (stereo not shown) [Example 105, 1-[(2,5-Difluorophenyl)methyl]-3-{5-methyl-[1,2,4]triazolo[1,5-a]pyrimidin-7-yl}piperidine], the IC50 was > 10000 nM.

Take `Cc1cc(C2CCCN(Cc3ccc(C(F)(F)F)cc3)C2)n2ncnc2n1` (stereo not shown) [Example 106, 3-{5-Methyl-[1,2,4]triazolo[1,5-a]pyrimidin-7-yl}-1-{[4-(trifluoromethyl)phenyl]methyl}piperidine]: the IC50 was in the range of 100 to 1000 nM.

Regarding `Cc1cc(C2CCCN(Cc3nc4ccccc4n3C)C2)n2ncnc2n1` (stereo not shown) [Example 107, 1-Methyl-2-[(3-{5-methyl-[1,2,4]triazolo[1,5-a]pyrimidin-7-yl}piperidin-1-yl)methyl]-1H-1,3-benzodiazole], the IC50 was > 10000 nM.

As to `Cc1cc(C2CCCN(Cc3c[nH]c4ccc(F)cc34)C2)n2ncnc2n1` (stereo not shown) [Example 108, 5-Fluoro-3-[(3-{5-methyl-[1,2,4]triazolo[1,5-a]pyrimidin-7-yl}piperidin-1-yl)methyl]-1H-indole], the concentration for half-maximal inhibition (IC50) was > 10000 nM.

For the compound `Cc1cc(C2CCCN(Cc3ccc(C)c(Cl)c3)C2)n2ncnc2n1` (stereo not shown) [Example 110, 1-[(3-Chloro-4-methylphenyl)methyl]-3-{5-methyl-[1,2,4]triazolo[1,5-a]pyrimidin-7-yl}piperidine], the IC50 was in the range of 100 to 1000 nM.

For the compound `Cc1cc(C2CCCN(Cc3ccccc3F)C2)n2ncnc2n1` (stereo not shown) [Example 111, 1-[(2-Fluorophenyl)methyl]-3-{5-methyl-[1,2,4]triazolo[1,5-a]pyrimidin-7-yl}piperidine], the IC50 is > 10000 nM.

In turn, `Cc1cc(C2CCCN(Cc3coc4ccccc34)C2)n2ncnc2n1` (stereo not shown) [Example 112, 1-(1-Benzofuran-3-ylmethyl)-3-{5-methyl-[1,2,4]triazolo[1,5-a]pyrimidin-7-yl}piperidine] displayed an IC50 of 1000 to 10000 nM.

The compound `Cc1cc(C2CCCN(Cc3cccc(Cl)c3F)C2)n2ncnc2n1` (stereo not shown) [Example 113, 1-[(3-Chloro-2-fluorophenyl)methyl]-3-{5-methyl-[1,2,4]triazolo[1,5-a]pyrimidin-7-yl}piperidine] showed an IC50 of 1000 to 10000 nM.

Take `Cc1cc(C2CCCN(Cc3cccc(F)c3)C2)n2ncnc2n1` (stereo not shown) [Example 114, 1-[(3-Fluorophenyl)methyl]-3-{5-methyl-[1,2,4]triazolo[1,5-a]pyrimidin-7-yl}piperidine]: the half-maximal inhibitory concentration (IC50) lay within 1000 to 10000 nM.

The test is the same for the next values; noted with them: IMAP TR-FRET, 200 nM FAM-cAMP substrate, 11-point half-log dose-response.
Consider `Cc1cc(C2CCCN(Cc3cnc(-c4ccccc4)s3)C2)n2ncnc2n1` (stereo not shown) [Example 109, 3-{5-Methyl-[1,2,4]triazolo[1,5-a]pyrimidin-7-yl}-1-[(2-phenyl-1,3-thiazol-5-yl)methyl]piperidine], for which the “PDE2 (pIC50)” value is given as >7.
